## Apparent affinities of Ab-14 variants for a coronavirus HR2 peptide

The measurements come from Li et al. 2023 (doi:10.1038/s41467-023-39022-2) through the FLAb antibody collection.

All variants were tested on one target, the spike HR2 peptide PDVDLGDISGINAS (SARS-CoV-2).

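The starting antibody came from a phage panning campaign against this peptide. Designed CDR sequences, proposed from the first random library and measured here. Group labels follow the data file (Ctrl: baseline library sampled from a position-specific scoring matrix, with some repeated check sequences; Rand: our label for a block that the file lists under HC and that is probably the random mutants of the ten best first-round binders; En: ensemble of fine-tuned language models; GP: Gaussian process model; HC: hill climbing; Gen: genetic algorithm; Gibbs: Gibbs sampling; a sequence that several methods proposed may carry one label only). AlphaSeq pools MATa yeast showing the antibodies with MATalpha yeast showing the peptide. Pairs that bind mate more often; barcode pairs of the diploids are counted by sequencing. The ratio of observed to expected reads was calibrated, replicate by replicate, on BCL2-family standards whose Kd was known from biolayer interferometry. Each pool was mated in six replicate cultures.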

Ab-14 is the parent antibody, in scFv form: VH, then a 15-residue (Gly4Ser)3 linker, then VL. The heavy chain is unchanged in all variants.
VH: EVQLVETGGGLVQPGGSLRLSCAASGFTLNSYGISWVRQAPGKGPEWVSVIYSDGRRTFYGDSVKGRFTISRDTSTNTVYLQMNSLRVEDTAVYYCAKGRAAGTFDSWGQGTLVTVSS
VL: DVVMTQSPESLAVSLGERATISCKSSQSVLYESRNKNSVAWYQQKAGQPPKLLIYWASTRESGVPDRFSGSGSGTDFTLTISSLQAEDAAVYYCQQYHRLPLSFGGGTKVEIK

Variants are written as CDR1, CDR2 and CDR3 of the light chain (limits as in the source). Parent: KSSQSVLYESRNKNSVA, WASTRES, QQYHRLPLS. Values are apparent Kd, the geometric mean of the replicates that gave a signal; lower means stronger binding. "not detected" marks a missing value. The strain was present, yet no cells mated with the target were sequenced in any replicate, which points to weak or no binding. Of ten entries with the parent sequence, four were seen in most replicates (averages 2.2 nM to 240 nM), three in one and three in none, so single entries are noisy. The authors' rule: three or more of the six replicates give a measured affinity, fewer mean a poor binder. The range of this assay differs from that of the first round, and the authors advise against merging the two. Background: pairings of all light chain designs with three empty control strains gave a value in 4% of cases (median 430 nM, 5th percentile 38 nM). Values in that range, when seen in few replicates, are hard to tell from nonspecific mating. Also given: how often the same scFv was detected with the empty control strains.

| # | CDR-L1 | CDR-L2 | CDR-L3 | group | Kd | detected | control signals |
|---|---|---|---|---|---|---|---|
| 1 | KFNISKEGVTRTGKSIA | GAQTIDE | QQYARLPLA | En_Gibbs | 5.2 nM | 6 of 6 | 1 of 18 |
| 2 | KLSQSHLYESRMKNSVA | NASTREV | QQYHRLPLS | GP_Gen | 4.8 nM | 6 of 6 | 0 of 18 |
| 3 | IVSQLMLWGMHAKNSIA | EAEQRIN | QQYERLPLF | En_Gen | 1.9 nM | 6 of 6 | 0 of 18 |
| 4 | KQSPSVLYESVNKNSVA | DASTRES | QQYHRLPLS | GP_HC | 600 pM | 6 of 6 | 0 of 18 |
| 5 | KLPNSTLYESRQKNSVA | QASTRES | QQYHRLPLS | GP_HC | 950 pM | 6 of 6 | 0 of 18 |
| 6 | TLTQSVGMESHQKNSVA | DLSTRGS | QQYHRLPLS | En_HC | 2.0 nM | 6 of 6 | 3 of 18 |
| 7 | KSSQSVLYESRNINSVA | KASTRES | QQYHRLPLS | Ctrl | 32 nM | 6 of 6 | 1 of 18 |
| 8 | MMQQVWGMGQRHRNNVA | QTSTREE | QQYDRLPLI | En_Gen | 2.7 nM | 6 of 6 | 2 of 18 |
| 9 | KQSQSVLYESRNKNSVA | DASTRES | QQYHRLPLA | GP_HC | 1.4 nM | 6 of 6 | 1 of 18 |
| 10 | KLGQMTGIETHNKNSLA | DANRRES | QQYHRLPLS | En_HC | 3.5 nM | 6 of 6 | 0 of 18 |
| 11 | KVSYSGLYGSRNKWSVA | EASTRES | QQYHRLPLD | GP_Gibbs | 470 nM | 2 of 6 | 1 of 18 |
| 12 | KQSQEKLYESRNKNNVA | DASTRES | QQYHRLPLS | GP_HC | 1.2 nM | 6 of 6 | 0 of 18 |
| 13 | KSSTSVLYESNNKNSVA | HASTRED | QQYHRLPLS | GP_HC | 1.8 nM | 6 of 6 | 1 of 18 |
| 14 | KSSQSVLDESRNKDSVA | WASTRES | QQYHRLPLS | Ctrl | 20 nM | 6 of 6 | 1 of 18 |
| 15 | KSSQSVLYESRNPNSVA | WASTREY | QQYHRLPES | Ctrl | not detected | 0 of 6 | 0 of 18 |
| 16 | KVQQSWLYESRMQNNVA | NASLRES | QQYHRLPLS | GP_Gibbs | 1.1 nM | 6 of 6 | 2 of 18 |
| 17 | KSSQSQLYESRNKNSVA | HASKRES | IQYHRLPLS | Ctrl | not detected | 0 of 6 | 0 of 18 |
| 18 | KLSQSVLYESRNSNSVA | NGSTRES | QQYHRLPLS | GP_Gen | 210 pM | 6 of 6 | 0 of 18 |
| 19 | NLNVSEDQWPSSKNAIA | QTTCRVL | QQYVHLPLS | En_Gibbs | 2.3 nM | 6 of 6 | 1 of 18 |
| 20 | SLAYTQHFGFSQEKAIA | EVATREQ | QQYFRLPLG | En_Gibbs | not detected | 0 of 6 | 0 of 18 |
| 21 | KMSQSDLYESRNKNSVA | NASQRES | QQYHRLPLS | GP_Gen | 1.1 nM | 6 of 6 | 3 of 18 |
| 22 | KSSQSVLYESRNKNSVA | YASTRVS | QQYHRLPLS | Ctrl | 56 nM | 6 of 6 | 0 of 18 |
| 23 | KLQQSVEYESRLANSVA | NASTRLE | QQYHRLPLS | GP_Gibbs | 2.0 nM | 6 of 6 | 2 of 18 |
| 24 | KLYQSVLYESRNKNSVA | EASTRES | QQYHRLPLS | GP_Gen | 1.2 nM | 6 of 6 | 1 of 18 |
| 25 | QIYQAMHTLSQMKDNVA | DVNERGS | QQYYRLPLS | En_Gen | 890 pM | 6 of 6 | 0 of 18 |
| 26 | SLAMFEDNYNQLHNSVA | NTANIDI | QQYDRLPLS | En_Gibbs | 440 nM | 3 of 6 | 1 of 18 |
| 27 | KLQQSELYESRMKNSVA | NASTRMS | QQYHRLPLS | GP_Gen | 5.0 nM | 6 of 6 | 0 of 18 |
| 28 | KLSASELYESRNKNSVA | NASTRES | QQYHRLPLS | GP_Gen | 810 pM | 6 of 6 | 3 of 18 |
| 29 | KISQSVLYESRNKNNVA | NASTRES | QQYHRLPLS | GP_Gen | 360 pM | 6 of 6 | 1 of 18 |
| 30 | HISYMDGHDGGNIHNVA | DTGVTSR | QQYSRLPLI | En_Gibbs | 2.5 nM | 6 of 6 | 0 of 18 |
| 31 | KLSQSVLYESRNKNSVA | NASTRES | QQYHRLPLI | GP_Gen | 1.2 nM | 6 of 6 | 0 of 18 |
| 32 | KSSQSWLYYSRNKNSVA | WASTRES | QQYHRLPLS | Ctrl | not detected | 0 of 6 | 1 of 18 |
| 33 | VLPDHELMKESQQHSIA | NEDKRME | QQYSRLPLM | En_Gibbs | 1.1 nM | 6 of 6 | 1 of 18 |
| 34 | KESQSWMYESRNKNSVA | GASTRES | QQYHRLPLS | GP_HC | 5.9 nM | 6 of 6 | 1 of 18 |
| 35 | KLQMSMPYESRMKNSVA | HASVRES | QQYHRLPLS | GP_Gibbs | 5.3 nM | 6 of 6 | 1 of 18 |
| 36 | KSSQSVLYASRNKNSVA | WASTREN | QQYHRLPLS | Ctrl | 110 nM | 1 of 6 | 2 of 18 |
| 37 | TLYGLTNSMSKNKDNVA | EMSTREL | QQYDRLPLV | En_Gen | 4.3 nM | 6 of 6 | 1 of 18 |
| 38 | KLSQSMLYESRNKNSVA | NASTRES | QQYHRLPLT | GP_Gen | 420 pM | 6 of 6 | 1 of 18 |
| 39 | KSSQSMLYEERNKNSVA | SASTRES | QQYSRLPLS | Ctrl | 6.6 nM | 6 of 6 | 1 of 18 |
| 40 | KLTMITGTEKVRGNNVA | EMETRER | QQYNRLPLA | En_Gen | 2.4 nM | 6 of 6 | 0 of 18 |
| 41 | KSQQSVLYESRNKNSVA | HASTRED | QQYHRLPLS | GP_HC | 800 pM | 6 of 6 | 2 of 18 |
| 42 | KSSQSVLSESPNKNSVA | AASTRES | QQYHRLPLS | Ctrl | 2.3 nM | 6 of 6 | 2 of 18 |
| 43 | KSSQSFLYESRNKNSVA | GAVTRES | QQYHRLMLS | Rand | not detected | 0 of 6 | 0 of 18 |
| 44 | MVTQMAMTGMKNKRSVA | NAETRED | QQYHHLPLI | En_Gen | 2.7 nM | 6 of 6 | 0 of 18 |
| 45 | IMTGIIEEGSNNKRNIA | ENKERFQ | QQYWQLPLA | En_Gibbs | 18 nM | 3 of 6 | 0 of 18 |
| 46 | NLSIQHQHQNMDANAVA | QTEIREV | QQYAQLPLA | En_Gibbs | 1.9 nM | 6 of 6 | 0 of 18 |
| 47 | KISQSVLGESRNKNSVA | NASTRES | QQYHRLPLS | GP_Gen | 340 pM | 6 of 6 | 1 of 18 |
| 48 | TISGMANYESTNKNSVA | ELTTRGQ | QQYERLPLS | En_HC | 15 nM | 6 of 6 | 0 of 18 |
| 49 | KLSGSVCMLSRADNSVA | DASTRES | QQYHRLPLS | GP_Gibbs | 3.9 nM | 6 of 6 | 1 of 18 |
| 50 | HMSAITLGGMRARNSVA | QMTTREN | QQYDRLPLS | En_Gen | 3.5 nM | 6 of 6 | 1 of 18 |
| 51 | KVLQSVVYEGRNKNSVA | QASTRED | QQYHRLPLS | GP_HC | 2.8 nM | 6 of 6 | 0 of 18 |
| 52 | KLSQSKLYESRNKNNVA | GASTRES | QQYHRLPLS | GP_Gen | 2.4 nM | 6 of 6 | 1 of 18 |
| 53 | KSQQSVLYESRNKNSVA | NESTRES | QQYHRLPLS | Ctrl | 2.2 nM | 6 of 6 | 1 of 18 |
| 54 | HVAQTRQEDIQNKNNVA | EGSVVIS | QQYSKLPFS | En_Gibbs | 4.1 nM | 6 of 6 | 2 of 18 |
| 55 | KLSQDDWYESRNCNNVA | QASTREQ | QQYHRLPLS | GP_Gibbs | 3.7 nM | 6 of 6 | 0 of 18 |
| 56 | KSSQSALYESRNKNSVA | EASTRES | QQYHRLPLS | Ctrl | 1.4 nM | 6 of 6 | 2 of 18 |
| 57 | KLRQSTLYESRNKNSVA | GASTRES | QQWHRLPLS | GP_HC | 13 nM | 1 of 6 | 0 of 18 |
| 58 | KLSMVTGHMSMAKNNVA | EMVTREE | QQYNRLPLS | En_Gen | 1.4 nM | 6 of 6 | 2 of 18 |
| 59 | HLGLVTMLESSVRNSVA | NNSTREE | QQYDRLPLS | En_Gen | 64 nM | 6 of 6 | 1 of 18 |
| 60 | TISMLMNHMTRNRNNVA | NMDMREV | QQYDRLPLS | En_Gen | 1.2 nM | 6 of 6 | 0 of 18 |
| 61 | KSMQSVLYESRNKNSLA | WASTRES | QQYHRLPLS | Ctrl | not detected | 0 of 6 | 0 of 18 |
| 62 | KSSQSVLYEGRNKNSVA | QASTRVP | QQYHRLPLS | Ctrl | 4.2 nM | 6 of 6 | 3 of 18 |
| 63 | AIYSTGYQVDSQMQAIA | DGHERIS | QQYFRLPLN | En_Gibbs | 2.3 nM | 6 of 6 | 1 of 18 |
| 64 | IISDLTMYGSRNKNSVA | DLSTRGS | QQYHRLPLS | En_HC | 1.3 nM | 6 of 6 | 0 of 18 |
| 65 | KLDQSVMLWSRNKNSVA | EASTRMS | QDYHRLPLS | GP_Gibbs | 1.9 nM | 6 of 6 | 1 of 18 |
| 66 | KIRVNHLMFSQNESNIA | GMSVRSR | QQYYHLPLT | En_Gibbs | 33 nM | 6 of 6 | 1 of 18 |
| 67 | NLMSGMSELSVWSYSIA | SASIRGS | QQYFRLPLL | En_Gibbs | 11 nM | 5 of 6 | 0 of 18 |
| 68 | KVEQSNDYESRNVNSVA | NASQRLK | QQYHRLPLS | GP_Gibbs | 850 pM | 6 of 6 | 0 of 18 |
| 69 | KSHISYLYESRNKNFVA | EASTRES | QQYHRLPLS | Rand | 11 nM | 6 of 6 | 1 of 18 |
| 70 | MAYGGDMMQSVARNSVA | NAETRAE | QDYHRLPLS | En_HC | 7.1 nM | 6 of 6 | 4 of 18 |
| 71 | KSSQSVAYNSRNKNSVA | WASTRES | QQYHRLELS | Ctrl | not detected | 0 of 6 | 0 of 18 |

Extract of 7 entries:

CDR-L1	CDR-L2	CDR-L3	group	Kd	detected	control signals
KQSPSVLYESVNKNSVA	DASTRES	QQYHRLPLS	GP_HC	600 pM	6 of 6	0 of 18
KLTMITGTEKVRGNNVA	EMETRER	QQYNRLPLA	En_Gen	2.4 nM	6 of 6	0 of 18
KSSQSMLYEERNKNSVA	SASTRES	QQYSRLPLS	Ctrl	6.6 nM	6 of 6	1 of 18
KISQSVLYESRNKNNVA	NASTRES	QQYHRLPLS	GP_Gen	360 pM	6 of 6	1 of 18
KLSGSVCMLSRADNSVA	DASTRES	QQYHRLPLS	GP_Gibbs	3.9 nM	6 of 6	1 of 18
SLAMFEDNYNQLHNSVA	NTANIDI	QQYDRLPLS	En_Gibbs	440 nM	3 of 6	1 of 18
SLAYTQHFGFSQEKAIA	EVATREQ	QQYFRLPLG	En_Gibbs	not detected	0 of 6	0 of 18